# Conditions: buffer; pH 7.4; 200.0 µM
row,SMILES,solubility kinetic [µg/mL]
1,O=[N+]([O-])c1cccc(NC2=NCC(CBr)S2)c1 (stereo unspecified),38.9
2,O=[N+]([O-])c1cc([N+](=O)[O-])c(OC2CCCCC2O)c([N+](=O)[O-])c1 (stereo unspecified),48.8
3,NC(=O)c1cc([N+](=O)[O-])cc([N+](=O)[O-])c1N,11.7
4,CC(C)(C)C(=O)NC(Sc1ccncn1)C(Cl)(Cl)Cl (stereo unspecified),> 51.4
5,O=C(OC1CN2CCC1CC2)c1ccccc1 (stereo unspecified),31.5
6,Nc1cc(N)c2nonc2c1[N+](=O)[O-],9.4
7,CC(=O)c1ccc(N2CC2c2ccncc2)cc1 (stereo unspecified),> 35.7
8,O=C(Nc1ccncc1[N+](=O)[O-])c1ccc([N+](=O)[O-])cc1[N+](=O)[O-],> 50
9,CCC1=CC2Cc3nc4ccc(Cl)cc4c(N)c3C(C1)C2 (stereo unspecified),> 44.8
10,O=C(OC1CN2CCC1CC2)c1ccc(Cl)cc1 (stereo unspecified),35.6
11,CCOC(=O)c1ccc(NC(=O)C(C)(CCl)SC)cc1 (stereo unspecified),> 47.4
12,O=C(OC1CN2CCC1CC2)c1cccc([N+](=O)[O-])c1 (stereo unspecified),> 41.4
13,CN(C)C(=O)Oc1noc2ccccc12,> 30.9
14,O=C(OC1CN2CCC1CC2)c1cccc2[nH]cnc12 (stereo unspecified),39.7
15,Cc1ccc(C(=O)OC2CN3CCC2CC3)cc1 (stereo unspecified),33
16,COc1ccc(C2=NCC(CBr)S2)cc1 (stereo unspecified),24.7
17,O=P(Nc1nccs1)(c1ccccc1)c1nc2ccccc2s1 (stereo unspecified),20.7
18,O=[N+]([O-])c1ncn(CCn2ncnc2[N+](=O)[O-])n1,> 38.1
19,CC(NC(=O)COC(=O)C(O)(c1ccccc1)c1ccccc1)c1ccccc1 (stereo unspecified),10.6
20,CCNC(=S)/N=C(\N)N[N+](=O)[O-],> 28.7
21,O=C(OC1CN2CCC1CC2)c1ccc([N+](=O)[O-])cc1 (stereo unspecified),35

# Source: PubChem BioAssay AID1996
